Assay results published in EP4834343A1, “THERAPEUTIC AGENT FOR NEURODEGENERATIVE DISORDER” (dated 2026).

Legend:
[1] = tested on: PD patients with no combined use of levodopa; assay: Clinical Test 2 on PD patients: effectiveness (MDS-UPDRS Part III total score); settings: average ± standard deviation; 7 PD patients, oral once a day for 8 weeks, gradually increased 0.25-2 mg/day
Description: (§1) The MDS-UPDRS scores, which are one of the most representative indicators, consist of four parts (that is, Part I to Part IV), and cognitive function and mood disorders, daily life behavior, motor symptoms, motor complications are evaluated in Part I, Part II, Part III, and Part IV, respectively. In the evaluation of amelioration of motor symptoms, scores in Part III are particularly used, and lower scores from the baseline indicate higher amelioration effects.
Oral administration of Compound 2 in a daily dose of 0.25 mg once a day was started, and the oral administration was conducted once a day while the amount was increased by one stage (0.25 mg or 0.5 mg as the amount administered once a day) in the order of 0.5 mg, 1 mg, 1.5 mg, and 2 mg as a daily dose unless criteria for not increasing the amount were met at the timing of 1 week, 2 weeks, 4 weeks, and 6 weeks of administering the investigational drug. In a case where the criteria for not increasing the amount were met and it was determined to be possible to continue the investigation, the same dose was continuously administered. […]
(§2) As evaluation items regarding effectiveness and safety, items similar to those in Example 1 were evaluated.

[2] = tested on: PD patients with no combined use of levodopa; assay: Clinical Test 1 on PD patients: side effects (adverse drug reactions); settings: n = 37 per group
Description: (§3) Oral administration of Compound 2 in a daily dose of 0.25 mg once a day was started, and the oral administration was conducted once a day while the amount was increased by one stage (0.25 mg as a daily dose) in the order of 0.5 mg, 0.75 mg, and 1 mg as a daily dose unless criteria for not increasing the amount (such as a case where an adverse event with a causal relationship with the investigational drug was recognized and a case where a principal investigator or a sub-investigator determined that there was some safety problem) were met at the timing of 2 weeks, 4 weeks, and 6 weeks of administering the investigational drug. In a case where the criteria for not increasing the amount were met and it was determined to be possible to continue the investigation, the same dose was continuously administered. Note that even in the case where the same dose was continuously administered, the amount was increased when the criteria for not increasing the amount were not met at the next point of increasing the amount (at 4 weeks and 6 weeks). Hereinafter, this group will be referred to as Compound 2 administration group.
Oral administration of pramipexole hydrochloride hydrate extended-release tablet (PPX-LA) in a daily dose of 0.375 mg once a day was started, and the oral administration was conducted once a day while the amount was increased by one stage (0.375 mg or 0.75 mg as a daily dose) in the order of 0.75 mg, 1.5 mg, 2.25 mg, 3 mg, 3.75 mg, and 4.5 mg as a daily dose unless criteria for not increasing the amount were met at the timing of 1 week, 2 weeks, 3 weeks, 4 weeks, 5 weeks, and 6 weeks of administering the investigational drug. In a case where the criteria for not increasing the amount were met and it was determined to be possible to continue the investigation, the same dose was continuously administered. Note that even in the case where the same dose was continuously administered, the amount was increased when the criteria for not increasing the amount were not met at the next point of increasing the amount (at 2 weeks, 3 weeks, 4 weeks, 5 weeks, and 6 weeks). Hereinafter, this group will be referred to as the PPX-LA administration group.
(§4) As evaluation items related to safety, ESS total scores, adverse event developed states, side effect developed states, and the like were evaluated.

[3] = tested on: PD patients with no combined use of levodopa; assay: Clinical Test 2 on PD patients: side effects; settings: investigational drug administration period
Description: (§5) Oral administration of Compound 2 in a daily dose of 0.25 mg once a day was started, and the oral administration was conducted once a day while the amount was increased by one stage (0.25 mg or 0.5 mg as the amount administered once a day) in the order of 0.5 mg, 1 mg, 1.5 mg, and 2 mg as a daily dose unless criteria for not increasing the amount were met at the timing of 1 week, 2 weeks, 4 weeks, and 6 weeks of administering the investigational drug. In a case where the criteria for not increasing the amount were met and it was determined to be possible to continue the investigation, the same dose was continuously administered. Note that even in the case where the same dose was continuously administered, the amount was increased when the criteria for not increasing the amount were not met at the next point of increasing the amount (at 2 weeks, 4 weeks, and 6 weeks).
as §2

[4] = tested on: PD patients with no combined use of levodopa; assay: Clinical Test 1 on PD patients: effectiveness (MDS-UPDRS Part III total score); settings: average ± standard deviation; oral once a day for 12 weeks, gradually increased (Compound 2 0.25-1 mg/day; PPX-LA 0.375-4.5 mg/day)
Description: as §1
as §3, with “Note that even in the case where the same dose was continuously administered, the amount was increased when the criteria for not increasing the amount were not met at the next point of increasing the amount (at 4 weeks and 6 weeks). Hereinafter, this group will be referred to as Compound 2 administration group.” left out

[5] = tested on: PD patients with no combined use of levodopa; assay: Clinical Test 2 on PD patients: somnolence evaluation (ESS total score); settings: for proportions of subjects with the ESS total scores of 11 points or more: Clinical Test 2, 7 cases; for ESS total scores: average ± standard deviation
Source text: (§6) In the present invention, "the risk of somnolence as a side effect" of the non-ergot DAs means a risk of developing somnolence in the daytime, which is a safety issue of the non-ergot DAs. The degree of "the reduction of the risk of somnolence as a side effect" achieved by the pharmaceutical composition of the present invention can also be evaluated, for example, by ESS total scores. ESS is a self-managed questionnaire, and is a measure for subjects to evaluate their daytime sleepiness and doze propensity by answering eight questions. The ESS scores (sums of scores for eight items; 0 points to 3 points for each item) range from 0 to 24, and a normal range is 10 points or less. The higher the ESS scores, the higher the average sleep trend or daytime sleepiness in daily lives of the subjects (epworthsleepinessscale.com), and scores that are equal to or higher than 11 points are evaluated as pathological hypersomnia (diagnosis of narcolepsy, treatment guideline item). The effect of "reducing the risk of somnolence as a side effect" achieved by the pharmaceutical composition of the present invention can also be evaluated by, for example, a decrease in incidence rate compared to the developed states of adverse events and side effects by other non-ergot DAs, or a decrease in incidence rate and a decrease in degree of somnolence compared to the incidence frequency of somnolence during the daytime before administration of the pharmaceutical composition of the invention.
as §5, §2

[6] = tested on: PD patients with no combined use of levodopa; assay: Clinical Test 1 on PD patients: somnolence evaluation (ESS total score); settings: for ESS total scores: average ± standard deviation
Source text: as §6
as §3, with “group. […]” for “group.”
as §4

proportions of subjects with the ESS total scores of 11 points or more ([5]; at 0 weeks): 28.6% | ESS total scores ([5]; at 0 weeks, Clinical Test 2, 7 patients): 7.7 ± 8.4 | proportions of subjects with the ESS total scores of 11 points or more ([5]; at the treatment phase final evaluation): 28.6% | ESS total scores ([5]; at the treatment phase final evaluation, 8 weeks, 0.25-2 mg/day): 8.4 ± 9.0 | proportions of subjects with ESS total scores of 11 points or more ([6]; at 0 weeks, Clinical Test 1): 21.6% | ESS total scores ([6]; at 0 weeks, Clinical Test 1): 5.8 ± 4.9 | proportions of subjects with ESS total scores of 11 points or more ([6]; at the treatment phase final evaluation, Clinical Test 1): 13.5% | ESS total scores ([6]; at the treatment phase final evaluation, 12 weeks oral once a day, gradually increased): 5.6 ± 5.7
Structure (SMILES): CCCN(C(=O)NCCN(C)C)C(=O)[C@@H]1C[C@@H]2Cc3c(sc(N)c3C#N)C[C@H]2N(C)C1
amounts of change in MDS-UPDRS Part III total scores at the treatment phase final evaluation from the baseline [1]: -15.1 ± 9.0 | No. of Adverse drug reactions: Total, % (incidence rates of side effects) ([2]; investigational drug administration period): 13.5% | Adverse drug reactions: Abdominal discomfort, % [2]: 0.0% | Adverse drug reactions: Anxiety, % [2]: 0.0% | Adverse drug reactions: Constipation, % [2]: 8.1% | Adverse drug reactions: Hallucination, auditory, % [2]: 0.0% | Adverse drug reactions: Hallucination, visual, % [2]: 0.0% | Adverse drug reactions: Inappropriate affect, % [2]: 0.0% | Adverse drug reactions: Insomnia, % [2]: 2.7% | Adverse drug reactions: Nausea, % [2]: 0.0% | Adverse drug reactions: Somnolence, % [2]: 2.7% | Adverse drug reactions: Sudden onset of sleep, % [2]: 0.0% | Adverse drug reactions: Vomiting, % [2]: 0.0% | side effect "somnolence" ([3]; 7 cases, up to 2 mg/day): not observed | side effect "hallucination" observed ([3]; out of 7 cases, degree mild): 1 case | side effect "nausea" observed ([3]; out of 7 cases, degree mild): 1 case | amounts of change in MDS-UPDRS Part III total scores at the treatment phase final evaluation from the baseline [4]: -11.5 ± 7.6
